Source: ChEMBL document CHEMBL5046323, “Discovery of Phospholipase D Inhibitors with Improved Drug-like Properties and Central Nervous System Penetrance” (ACS Med Chem Lett, 2022)
Only a part of the results on these compounds is given; other tests are left out.

The chains behind the UniProt entries cited, without tags or fusion partners.
UniProt Q13393, whole entry: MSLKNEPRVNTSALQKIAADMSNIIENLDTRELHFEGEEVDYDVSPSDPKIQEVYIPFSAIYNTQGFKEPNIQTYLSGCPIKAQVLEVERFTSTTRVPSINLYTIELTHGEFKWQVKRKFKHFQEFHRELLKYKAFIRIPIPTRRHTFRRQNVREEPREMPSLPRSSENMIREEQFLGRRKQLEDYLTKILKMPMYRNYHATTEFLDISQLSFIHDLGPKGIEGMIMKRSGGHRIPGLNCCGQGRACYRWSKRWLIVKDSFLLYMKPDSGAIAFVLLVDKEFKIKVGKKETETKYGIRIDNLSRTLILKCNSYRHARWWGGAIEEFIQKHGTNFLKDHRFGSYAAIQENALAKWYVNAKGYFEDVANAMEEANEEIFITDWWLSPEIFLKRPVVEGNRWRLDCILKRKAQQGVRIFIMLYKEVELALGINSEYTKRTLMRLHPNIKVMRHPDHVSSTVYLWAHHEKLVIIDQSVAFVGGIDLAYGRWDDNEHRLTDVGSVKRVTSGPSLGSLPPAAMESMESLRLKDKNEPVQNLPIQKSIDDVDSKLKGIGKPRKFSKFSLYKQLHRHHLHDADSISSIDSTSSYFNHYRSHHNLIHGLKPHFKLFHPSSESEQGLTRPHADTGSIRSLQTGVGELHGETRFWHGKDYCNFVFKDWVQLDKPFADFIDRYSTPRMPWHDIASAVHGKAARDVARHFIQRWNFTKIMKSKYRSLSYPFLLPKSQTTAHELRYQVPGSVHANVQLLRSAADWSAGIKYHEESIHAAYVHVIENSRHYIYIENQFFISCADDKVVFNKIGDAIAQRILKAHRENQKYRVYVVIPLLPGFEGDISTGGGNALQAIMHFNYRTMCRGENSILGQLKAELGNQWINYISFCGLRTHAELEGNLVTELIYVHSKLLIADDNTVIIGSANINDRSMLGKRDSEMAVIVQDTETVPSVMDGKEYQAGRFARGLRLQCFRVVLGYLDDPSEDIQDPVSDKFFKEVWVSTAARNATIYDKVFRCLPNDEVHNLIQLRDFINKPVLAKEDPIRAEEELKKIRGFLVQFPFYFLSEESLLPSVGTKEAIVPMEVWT
UniProt O14939, whole entry: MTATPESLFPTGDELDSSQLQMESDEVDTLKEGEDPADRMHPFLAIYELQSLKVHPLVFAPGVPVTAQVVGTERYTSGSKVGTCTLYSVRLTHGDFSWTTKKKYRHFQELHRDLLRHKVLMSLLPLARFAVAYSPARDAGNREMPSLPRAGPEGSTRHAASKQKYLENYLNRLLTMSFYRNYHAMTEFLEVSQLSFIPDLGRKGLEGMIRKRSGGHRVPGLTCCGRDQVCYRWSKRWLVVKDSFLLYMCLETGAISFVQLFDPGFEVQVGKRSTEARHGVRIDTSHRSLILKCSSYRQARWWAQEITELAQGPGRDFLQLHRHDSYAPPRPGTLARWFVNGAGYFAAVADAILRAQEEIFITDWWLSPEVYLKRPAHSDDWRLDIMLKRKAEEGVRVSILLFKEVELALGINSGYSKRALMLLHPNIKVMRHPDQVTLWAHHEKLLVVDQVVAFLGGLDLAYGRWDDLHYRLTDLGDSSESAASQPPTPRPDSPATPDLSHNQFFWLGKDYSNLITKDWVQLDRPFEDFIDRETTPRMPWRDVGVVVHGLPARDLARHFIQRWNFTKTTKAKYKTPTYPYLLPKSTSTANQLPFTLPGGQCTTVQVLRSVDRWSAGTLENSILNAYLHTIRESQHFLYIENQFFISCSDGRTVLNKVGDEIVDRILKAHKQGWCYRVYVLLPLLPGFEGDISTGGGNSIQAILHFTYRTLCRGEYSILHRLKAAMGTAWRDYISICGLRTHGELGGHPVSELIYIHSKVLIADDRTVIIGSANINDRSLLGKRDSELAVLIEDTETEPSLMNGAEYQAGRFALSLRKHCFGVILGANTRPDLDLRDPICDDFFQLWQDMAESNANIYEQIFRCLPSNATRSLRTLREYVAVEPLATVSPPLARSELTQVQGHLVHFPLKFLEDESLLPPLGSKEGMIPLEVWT

Assays:
[1] = Efflux ratio of apparent permeability from basolateral to apical side over apical to basolateral side in dog MDCK-MDR1 cells
[2] = molecular target: Phospholipase D1 (Homo sapiens, UniProt Q13393); assay: Inhibition of PLD1 (unknown origin) expressed in human HEK cells by immunoprecipitation assay
[3] = molecular target: Phospholipase D2 (Homo sapiens, UniProt O14939); assay: Inhibition of PLD2 (unknown origin) expressed in human HEK cells by immunoprecipitation
[4] = test system: Calu-1; assay: Antiproliferative activity against human Calu-1 cells assessed as reduction on cell viability by cellular assay

| Compound | Ratio [1] | IC50 [2] [µM] | IC50 [3] [µM] | IC50 [4] [µM] |
| --- | --- | --- | --- | --- |
| C[C@@H](CN1CCC(n2c(=O)[nH]c3ccccc32)CC1)n1ccccc1=O | 1.6 | 0.043 | > 10 | 0.058 |
| O=c1ccccn1CCN1CCC(n2c(=O)[nH]c3ccccc32)CC1 | 17 | 0.12 | > 10 | 0.98 |
